Experimental findings from patent publication US7939510B2, “Di(uridine 5′-)tetraphosphate and salts thereof” (priority 1997, dated 2011) are described below.

The conditions of this data set: battery of genetic toxicology assays.

“P^1,P^4-di(uridine 5′-)tetraphosphate, tetrasodium salt”: the genotoxicity result is listed as “nongenotoxic”.
